Read-outs that look alike come from different tables or passages of the source.
Test system: dollar spot (S. homoeocarpa)
Details: for Turf quality: 1-to-9 scale (9 = best), dollar spot trial
[1] = Ningnanmycin 10WP 0.30 g/m^2, 7 d interval, Oct. 12, 2011
[2] = Ningnanmycin 10WP 0.30 g/m^2, 7 d interval, Oct. 18, 2011
[3] = Ningnanmycin 10WP 0.30 g/m^2, 7 d interval, Oct. 26, 2011
[4] = Ningnanmycin 10WP 0.45 g/m^2, 14 d interval, Oct. 12, 2011
[5] = Ningnanmycin 10WP 0.45 g/m^2, 14 d interval, Oct. 18, 2011
[6] = Ningnanmycin 10WP 0.45 g/m^2, 14 d interval, Oct. 26, 2011

What does the source list for `CNCC(=O)NC(CO)C(=O)NC1C(C(N)=O)OC(n2ccc(N)nc2=O)C(O)C1O` [ningnanmycin, 4-sarcosinamido-L-serinamido-4-deoxy-β-D-pyranoglucuronamido]?
Turf quality [1]: 7.1 a; Turf quality [2]: 7.9 a; Turf quality [3]: 7.6 a; Turf quality (Ningnanmycin 10WP 0.45 g/m^2, 7 d interval, Oct. 12, 2011): 6.4 b; Turf quality (Ningnanmycin 10WP 0.45 g/m^2, 7 d interval, Oct. 18, 2011): 7.9 a; Turf quality (Ningnanmycin 10WP 0.45 g/m^2, 7 d interval, Oct. 26, 2011): 7.6 a; Turf quality [4]: 7.1 a; Turf quality [5]: 7.9 a; Turf quality [6]: 7.6 a; Turf quality (Ningnanmycin 10WP 0.60 g/m^2, 14 d interval, Oct. 12, 2011): 6.6 ab; Turf quality (Ningnanmycin 10WP 0.60 g/m^2, 14 d interval, Oct. 18, 2011): 7.4 a; Turf quality (Ningnanmycin 10WP 0.60 g/m^2, 14 d interval, Oct. 26, 2011): 7.1 a; dollar spot control (in words) (2010, 0.30 g/m^2, 7-day interval): best control; dollar spot control (in words) (2011, 0.45 g/m^2, 7-day interval, after the second application): completely eliminated dollar spot; Dollar spot incidence (Ningnanmycin 10WP 0.15 g/m^2, 7 d interval, Aug. 3, 2010): 0 infection centers per plot; Dollar spot incidence (Ningnanmycin 10WP 0.15 g/m^2, 7 d interval, Aug. 11, 2010): 0 infection centers per plot; Dollar spot incidence (Ningnanmycin 10WP 0.15 g/m^2, 7 d interval, Aug. 17, 2010): 0 infection centers per plot; Dollar spot incidence (Ningnanmycin 10WP 0.15 g/m^2, 7 d interval, Jul. 14, 2010): 2 infection centers per plot; Dollar spot incidence (Ningnanmycin 10WP 0.15 g/m^2, 7 d interval, Jul. 21, 2010): 0 infection centers per plot; Dollar spot incidence (Ningnanmycin 10WP 0.15 g/m^2, 7 d interval, Jul. 27, 2010): 1 infection centers per plot; Dollar spot incidence (Ningnanmycin 10WP 0.15 g/m^2, 14 d interval, Aug. 3, 2010): 37 infection centers per plot; Dollar spot incidence (Ningnanmycin 10WP 0.15 g/m^2, 14 d interval, Aug. 11, 2010): 23 infection centers per plot; Dollar spot incidence (Ningnanmycin 10WP 0.15 g/m^2, 14 d interval, Aug. 17, 2010): 16 infection centers per plot; Dollar spot incidence (Ningnanmycin 10WP 0.15 g/m^2, 14 d interval, Jul. 14, 2010): 4 infection centers per plot; Dollar spot incidence (Ningnanmycin 10WP 0.15 g/m^2, 14 d interval, Jul. 21, 2010): 18 infection centers per plot; Dollar spot incidence (Ningnanmycin 10WP 0.15 g/m^2, 14 d interval, Jul. 27, 2010): 3 infection centers per plot; Dollar spot incidence (Ningnanmycin 10WP 0.30 g/m^2, 7 d interval, Aug. 3, 2010): 0 infection centers per plot; Dollar spot incidence (Ningnanmycin 10WP 0.30 g/m^2, 7 d interval, Aug. 11, 2010): 0 infection centers per plot; Dollar spot incidence (Ningnanmycin 10WP 0.30 g/m^2, 7 d interval, Aug. 17, 2010): 0 infection centers per plot; Dollar spot incidence (Ningnanmycin 10WP 0.30 g/m^2, 7 d interval, Jul. 14, 2010): 1 infection centers per plot; Dollar spot incidence (Ningnanmycin 10WP 0.30 g/m^2, 7 d interval, Jul. 21, 2010): 0 infection centers per plot; Dollar spot incidence (Ningnanmycin 10WP 0.30 g/m^2, 7 d interval, Jul. 27, 2010): 0 infection centers per plot; Dollar spot incidence (Ningnanmycin 10WP 0.30 g/m^2, 7 d interval, Oct. 4, 2011): 2 infection centers per plot; Dollar spot incidence [1]: 1 infection centers per plot; Dollar spot incidence [2]: 1 infection centers per plot; Dollar spot incidence [3]: 0 infection centers per plot; Dollar spot incidence (Ningnanmycin 10WP 0.30 g/m^2, 7 d interval, Sep. 9, 2011): 11 infection centers per plot; Dollar spot incidence (Ningnanmycin 10WP 0.30 g/m^2, 7 d interval, Sep. 16, 2011): 6 infection centers per plot; Dollar spot incidence (Ningnanmycin 10WP 0.30 g/m^2, 7 d interval, Sep. 26, 2011): 5 infection centers per plot; Dollar spot incidence (Ningnanmycin 10WP 0.30 g/m^2, 14 d interval, Aug. 3, 2010): 14 infection centers per plot; Dollar spot incidence (Ningnanmycin 10WP 0.30 g/m^2, 14 d interval, Aug. 11, 2010): 9 infection centers per plot; Dollar spot incidence (Ningnanmycin 10WP 0.30 g/m^2, 14 d interval, Aug. 17, 2010): 3 infection centers per plot; Dollar spot incidence (Ningnanmycin 10WP 0.30 g/m^2, 14 d interval, Jul. 14, 2010): 3 infection centers per plot; Dollar spot incidence (Ningnanmycin 10WP 0.30 g/m^2, 14 d interval, Jul. 21, 2010): 8 infection centers per plot; Dollar spot incidence (Ningnanmycin 10WP 0.30 g/m^2, 14 d interval, Jul. 27, 2010): 0 infection centers per plot; Dollar spot incidence (Ningnanmycin 10WP 0.30 g/m^2, 14 d interval, Oct. 4, 2011): 30 infection centers per plot; Dollar spot incidence (Ningnanmycin 10WP 0.30 g/m^2, 14 d interval, Sep. 9, 2011): 31 infection centers per plot; Dollar spot incidence (Ningnanmycin 10WP 0.30 g/m^2, 14 d interval, Sep. 16, 2011): 20 infection centers per plot; Dollar spot incidence (Ningnanmycin 10WP 0.30 g/m^2, 14 d interval, Sep. 26, 2011): 57 infection centers per plot; Dollar spot incidence (Ningnanmycin 10WP 0.45 g/m^2, 7 d interval (raised from 0.15 g/m^2 starting 5 October), Oct. 12, 2011): 5 infection centers per plot; Dollar spot incidence (Ningnanmycin 10WP 0.45 g/m^2, 7 d interval (raised from 0.15 g/m^2 starting 5 October), Oct. 18, 2011): 0 infection centers per plot; Dollar spot incidence (Ningnanmycin 10WP 0.45 g/m^2, 7 d interval (raised from 0.15 g/m^2 starting 5 October), Oct. 26, 2011): 0 infection centers per plot; Dollar spot incidence (Ningnanmycin 10WP 0.45 g/m^2, 14 d interval, Oct. 4, 2011): 5 infection centers per plot; Dollar spot incidence [4]: 2 infection centers per plot; Dollar spot incidence [5]: 1 infection centers per plot; Dollar spot incidence [6]: 1 infection centers per plot; Dollar spot incidence (Ningnanmycin 10WP 0.45 g/m^2, 14 d interval, Sep. 9, 2011): 5 infection centers per plot; Dollar spot incidence (Ningnanmycin 10WP 0.45 g/m^2, 14 d interval, Sep. 16, 2011): 3 infection centers per plot; Dollar spot incidence (Ningnanmycin 10WP 0.45 g/m^2, 14 d interval, Sep. 26, 2011): 14 infection centers per plot; Dollar spot incidence (Ningnanmycin 10WP 0.60 g/m^2, 14 d interval (raised from 0.30 g/m^2 starting 5 October), Oct. 12, 2011): 5 infection centers per plot; Dollar spot incidence (Ningnanmycin 10WP 0.60 g/m^2, 14 d interval (raised from 0.30 g/m^2 starting 5 October), Oct. 18, 2011): 6 infection centers per plot; Dollar spot incidence (Ningnanmycin 10WP 0.60 g/m^2, 14 d interval (raised from 0.30 g/m^2 starting 5 October), Oct. 26, 2011): 7 infection centers per plot; Dollar spot incidence (Ningnanmycin 10WP 015 g, 7 d interval, Oct. 4, 2011): 27 infection centers per plot; Dollar spot incidence (Ningnanmycin 10WP 015 g, 7 d interval, Sep. 9, 2011): 42 infection centers per plot; Dollar spot incidence (Ningnanmycin 10WP 015 g, 7 d interval, Sep. 16, 2011): 60 infection centers per plot; Dollar spot incidence (Ningnanmycin 10WP 015 g, 7 d interval, Sep. 26, 2011): 30 infection centers per plot
